Measured values taken from ChEMBL document CHEMBL5726224, “Aminoester derivatives” (2017).

Chains of the proteins cited; added tags and fusions are not shown. Lines headed by an entry give the natural chain unless they say otherwise; changes in a name come on top.
UniProt Q07343: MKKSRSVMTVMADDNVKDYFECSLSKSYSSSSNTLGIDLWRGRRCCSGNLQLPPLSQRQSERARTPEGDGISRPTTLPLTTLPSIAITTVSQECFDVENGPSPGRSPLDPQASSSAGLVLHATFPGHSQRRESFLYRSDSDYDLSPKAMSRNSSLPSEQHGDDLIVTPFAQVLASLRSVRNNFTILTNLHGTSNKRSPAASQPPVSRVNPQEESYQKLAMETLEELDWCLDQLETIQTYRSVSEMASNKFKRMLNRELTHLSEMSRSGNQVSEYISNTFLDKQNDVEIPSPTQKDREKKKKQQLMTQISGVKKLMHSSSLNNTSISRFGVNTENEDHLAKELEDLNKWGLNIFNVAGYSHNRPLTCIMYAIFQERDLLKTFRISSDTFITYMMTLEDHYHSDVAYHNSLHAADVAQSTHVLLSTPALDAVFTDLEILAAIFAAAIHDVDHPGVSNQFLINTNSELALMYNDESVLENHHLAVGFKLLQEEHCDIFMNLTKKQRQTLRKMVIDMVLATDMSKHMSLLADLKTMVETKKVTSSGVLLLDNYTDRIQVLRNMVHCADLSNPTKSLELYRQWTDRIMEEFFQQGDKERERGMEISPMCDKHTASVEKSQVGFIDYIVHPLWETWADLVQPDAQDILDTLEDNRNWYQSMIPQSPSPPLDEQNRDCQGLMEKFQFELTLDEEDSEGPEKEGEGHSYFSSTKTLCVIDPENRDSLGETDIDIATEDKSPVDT

Biological target: 3',5'-cyclic-AMP phosphodiesterase 4B (Homo sapiens, UniProt Q07343)
Assay: HTRF Assay: PDE4B2 activity is detected using the LANCE Ultra cAMP homogeneous time resolved fluorescence resonance energy transfer (TR-FRET) assay from Perkin Elmer. The assay is based on the competition between the europium (Eu) chelate-labeled cAMP tracer and sample cAMP for binding sites on cAMP-specific monoclonal antibodies (mAb) labelled with the ULight¿ dye. The assay is carried out in 384-well low volume plates in a volume of 10 μl. Human recombinant PDE4B2 (80 pM) is incubated for 2 h with 3 nM cAMP in buffer containing 1×HBSS, 5 mM HEPES, 3 mM MgCl2, 0.1% BSA, pH 7.4 with or without test compounds. The enzymatic reactions are efficiently stopped by the addition of 500 μM IBMX present in the combined Stop/Detection buffer containing europium (Eu) chelate-labeled cAMP tracer and cAMP-specific monoclonal antibodies (mAb) labelled with the ULight¿ dye. […] IC50 values are determined from competition curves using a non-linear curve fitting program.

CN1CCC(COC(=O)C(NCc2ccc(C(=O)O[C@@H](Cc3c(Cl)c[n+]([O-])cc3Cl)c3ccc(OC(F)F)c(OCC4CC4)c3)s2)c2ccccc2)CC1 (stereo partly specified)
IC50: < 1 nM
